For 22 molecules, Potency results are on record in PubChem BioAssay (Tox21).

Several values for one entry are separate records, joined by “and”; a condition that tells them apart may be missing. A call without a number means that no potency is given here. Identical values can stand only once. The list shows a part of the results, in another mix than the full data. Results filed as inconclusive are left out. Activity calls are given as the source filed them. The call rests on the fitted dose curve; in most records, active means well fitted cell-killing curve with a large enough effect in the repeat runs; inconclusive means weak or mixed curves, or effect the other way; inactive means no such curve, though single readings can be large or run the other way.
Potency means the concentration at half of the fitted maximal effect.

The nature of the test: qHTS assay to identify small molecule agonists of the vitamin D receptor (VDR) signaling pathway - cell viability counter screen (AID 743224). Further: nearly all actives have a fitted effect of over 50% in size. Particulars: VDR-bla HEK293T viability, CellTiter-Glo luminescence, 16 h; series mostly up to 62.6 µM. From the text:
U.S. Tox21 Program National Center for Advancing Translational Sciences [NCATS] NIH Chemical Genomics Center [NCGC] U.S. Environmental Protection Agency [EPA] National Institutes of Environmental Health Sciences [NIEHS] National Toxicology Program [NTP] U.S. Food and Drug Administration [FDA] Tox21 Assay Overview: The vitamin D receptor (VDR), a member of nuclear hormone receptor superfamily, plays a critical role in calcium homeostasis and bone metabolism. It is also involved in cell differentiation and growth, and thrombogenicity. […] The cytotoxicity of the Tox21 compound library against the VDR-bla cell line was tested in parallel by measuring the cell viability using CellTiter-Glo assay (Promega, Madison, WI) in the same wells.
Tox21 Assay Protocol Summary: VDR-bla cells were dispensed at 2,000 cells/6 uL/well into black wall/clear-bottom 1536-well plates using a Multidrop Combi (Thermo Fisher Scientific, Waltham, MA) dispenser. After the assay plates were incubated at a 37C and 5% CO2 for 4 h, 23 nL of compounds dissolved in DMSO, positive controls or DMSO only was transferred to the assay plate by a Pintool station (Kalypsys, San Diego, CA). The plates were incubated at 37C and 5% CO2 for 16 h. After 1 uL of LiveBLAzerTM B/G FRET substrate was added using a Bioraptr Flying Reagent Dispenser (FRD) workstation (Beckman Coulter, Indianapolis, IN, USA), the plates were incubated at room temperature for 2 h, and fluorescence intensity was measured by an Envision plate reader (PerkinElmer, Shelton, CT). For cell viability readout that measures cytotoxicity, 3 ul/well of CellTiter-Glo reagent was added into the assay plates using a FRD. After 30 min incubation at room temperature, the luminescence intensity in the plates was measured using a ViewLux (PerkinElmer) plate reader.
On the technique in general: Quantitative high-throughput screening tests each substance at several concentrations.
`CCCCO[P+](=O)OCCCC`: the Potency result is “inactive”. As to `Cc1cc([N+](=O)[O-])cc([N+](=O)[O-])c1O`, the Potency is active: 49 µM. For the molecule `CN(C(=O)Cc1cccc2occc12)[C@H]1CC[C@@]2(CCCO2)C[C@@H]1N1CCCC1`, the Potency entry is “inactive”. To `O=[p+]1oc2ccccc2c2ccccc21` (configuration not stated) belongs “inactive”; to `O=P(Cl)(Oc1ccccc1)Oc1ccccc1`, “inactive”; to `CC(C)CCCCCCCOP(OCCCCCCCC(C)C)Oc1ccccc1`, “inactive”. To `CCCCCCCCCCCCCC[P+](CCCCCC)(CCCCCC)CCCCCC` belongs active: 6.15 µM. To `CN(N=O)C(=N)N[N+](=O)[O-]` belongs “inactive”; to `CN(C(=O)Cc1ccccc1)[C@H]1CC[C@@]2(CCCO2)C[C@@H]1N1CCCC1`, “inactive”; to `CCCCC(CC)CO[P+](=O)OCC(CC)CCCC` (configuration not stated), “inactive”.

As to `Cc1cc([N+](=O)[O-])c(O)c([N+](=O)[O-])c1`, the Potency result was “inactive”. To `COP(=S)(Cl)OC` belongs “inactive”; to `CCOP(=S)(CC)Sc1ccccc1` (configuration not stated), “inactive”; to `O=[N+]([O-])c1ccc(S(=O)(=O)O)c([N+](=O)[O-])c1`, “inactive”. With `O=P(Cl)(Cl)c1ccccc1`, the Potency entry is “inactive”.

On to `CCOC(=O)Cl`, for which the Potency result is “inactive”. `O=[P+](Oc1ccccc1)Oc1ccccc1`: the Potency entry is “inactive”.

Turning to `COC(=O)Cl`, the Potency result is “inactive”. To `CN(C(=O)Cc1ccc(Cl)c(Cl)c1)[C@H]1CC[C@@]2(CCCO2)C[C@@H]1N1CCCC1` belongs “inactive”; to `O=C1C2CC=CCC2C(=O)N1SC(Cl)(Cl)C(Cl)Cl` (configuration not stated), active: 7.82 µM and active: 1.74 µM; to `CCNC(C)Cc1ccc2c(c1)OCO2` (configuration not stated), “inactive”. As for `ClP(Cl)c1ccccc1`, the Potency result is “inactive”.
